The results in this text go back to patent US5856189A, “Cell culture model for drug bioavailability” (priority 1997, dated 1999).

Bounds are passed on as bounds.

For one data set, the system named is P-glycoprotein. The data set is described as follows: Immunoblot of P-glycoprotein in Caco-2 cells. The class given is cell-based, human. The settings on record: two weeks treatment.
Data set [1] deals with IFABP mRNA (Caco-2 cells).
A further data set concerns IFABP. In words: Immunoblot of IFABP in Caco-2 cells. The class given is cell-based, human. The note with it: two weeks treatment, varying concentrations.
The next data set has as its system cytochrome b5. The data set is described as follows: Immunoblot of cytochrome b5 in Caco-2 cells. The class given is cell-based, human. The note with it: two weeks treatment, varying concentrations.
Data set [2] has as its system CYP3A4 mRNA (Caco-2 cells).

As to `C=C1/C(=C\C=C2/CCC[C@]3(C)[C@@H]([C@H](C)CCCC(C)(C)O)CC[C@@H]23)C[C@@H](O)C[C@@H]1O` [1α,25-(OH)2 -D3, 1α,25-dihydroxyvitamin D3], in the data set with P-glycoprotein, the “concentrations at which immunoreactive P-glycoprotein increased” value is at least 0.5 µM. Further, in data set [1], the “IFABP mRNA level” value was “did not appear to increase”. In the data set with IFABP, the “level of IFABP protein” value is “Neither of the FABPs showed changes in levels of expression”. Moreover, the “level of cytochrome b5 immunoreactive protein” value with cytochrome b5 is listed as “did not appear to change”.

In the case of `CC(=O)C(=O)[O-].[Na+]` [sodium pyruvate], the “enhancement of CYP3A4 mRNA expression” value in data set [2] is given as “did not appear to enhance CYP3A4 mRNA expression”.
